Test results as given in patent US4711245A, “Sensor for components of a liquid mixture” (Genetics International, Inc., priority 1983, dated 1987).

Tests used:
[1] = spectrophotometric measurement (E, cm^-1 M^-1)
[2] = dc cyclic voltammetry of ferrocene derivatives (redox potential); assay type: physicochemical

In the case of ferrocene monocarboxylic acid, the E [1] is reported as 420 cm⁻¹ M⁻¹, the ΔEp ([2]; voltammogram of FIG. 10, reversible one-electron couple) is reported as 60 mV and the “Eo/mV vs SCE” value ([2]; vs SCE, pH 7 and 25° C.) is reported as 275 mV. The Eo ([2]; vs a standard calomel electrode, phosphate buffer at pH 7.0) was 275 mV.

Some compounds may have been tested in ways that are not shown here.
